Measured values taken from publication PMC5613693, “Interactions of Desmethoxyyangonin, a Secondary Metabolite from Renealmia alpinia, with Human Monoamine Oxidase-A and Oxidase-B” (Evidence-based Complementary and Alternative Medicine : eCAM, 2017).

Chains of the proteins cited; added tags and fusions are not shown.
UniProt P27338, whole entry: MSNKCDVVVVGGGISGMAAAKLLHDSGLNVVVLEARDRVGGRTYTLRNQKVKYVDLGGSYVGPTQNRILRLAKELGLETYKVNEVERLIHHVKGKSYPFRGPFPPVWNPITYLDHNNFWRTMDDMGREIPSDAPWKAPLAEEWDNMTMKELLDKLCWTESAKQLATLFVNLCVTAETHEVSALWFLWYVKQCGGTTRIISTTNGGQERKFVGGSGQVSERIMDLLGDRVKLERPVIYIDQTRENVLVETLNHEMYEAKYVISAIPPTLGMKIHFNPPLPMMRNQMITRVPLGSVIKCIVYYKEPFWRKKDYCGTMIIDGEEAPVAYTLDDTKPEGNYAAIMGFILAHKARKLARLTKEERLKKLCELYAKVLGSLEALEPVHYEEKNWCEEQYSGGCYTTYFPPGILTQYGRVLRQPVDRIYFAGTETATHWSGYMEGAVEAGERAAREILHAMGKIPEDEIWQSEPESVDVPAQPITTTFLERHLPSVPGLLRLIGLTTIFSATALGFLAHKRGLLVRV
UniProt P21397, whole entry: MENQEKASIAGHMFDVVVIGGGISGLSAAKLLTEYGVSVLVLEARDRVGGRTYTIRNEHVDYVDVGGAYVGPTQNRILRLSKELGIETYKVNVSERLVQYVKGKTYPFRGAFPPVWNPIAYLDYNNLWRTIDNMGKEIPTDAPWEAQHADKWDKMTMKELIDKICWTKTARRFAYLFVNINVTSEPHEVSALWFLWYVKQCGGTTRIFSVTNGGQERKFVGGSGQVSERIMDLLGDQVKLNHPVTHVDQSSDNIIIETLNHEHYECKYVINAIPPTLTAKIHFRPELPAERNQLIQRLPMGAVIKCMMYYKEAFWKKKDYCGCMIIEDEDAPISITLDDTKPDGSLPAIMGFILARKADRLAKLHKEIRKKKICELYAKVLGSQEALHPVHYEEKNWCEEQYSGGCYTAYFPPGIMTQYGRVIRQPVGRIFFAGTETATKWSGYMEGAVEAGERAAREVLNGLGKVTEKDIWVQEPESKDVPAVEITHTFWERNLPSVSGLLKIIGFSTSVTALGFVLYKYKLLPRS

Columns and labels:
Assay type in all cases: biochemical
[1] = molecular target: T1, recombinant human MAO-B (Homo sapiens, UniProt P27338); assay: Fluorometric kynuramine deamination assay, MAO-B inhibition (IC50)
T1 construct: purchased BD Biosciences (Bedford, MA, USA); host or cells: baculovirus (Autographa californica) infected insect cells (BTI-TN-5B1-4)
Description: Pure recombinant human monoamine oxidases (MAO-A and MAO-B) enzymes overexpressed in baculovirus (Autographa californica) infected insect cells (BTI-TN-5B1-4) were purchased from BD Biosciences, (Bedford, MA, USA).
Stock solutions of the test compounds/extracts were prepared in DMSO and diluted further in 0.1 M potassium phosphate buffer (pH 7.4) to obtain the desired concentrations. MAO-A and MAO-B activities were determined by fluorometric kynuramine deamination assay set up in 384-well solid white flat-bottom plates. MAO-A and MAO-B inhibition activities (IC50 values) were determined using fixed concentration of the substrate kynuramine and varying concentrations of the test compounds or extracts. The enzyme reactions were carried out in 0.1 M potassium phosphate buffer (pH-7.4). […] The reaction mixtures with buffer/substrate/inhibitor were preincubated for 10 minutes at 37°C, followed by addition of MAO-A and MAO-B to initiate the reaction. The solid white microplates were incubated for 20 minutes at 37°C and the enzymatic reaction was stopped by addition of 28 µL of 2 N NaOH to each well. The deaminated product of kynuramine, which spontaneously cyclizes to 4-hydroxyquinoline, was measured fluorometrically at 320 nm excitation and 380 nm emission wavelengths with a plate reader (SpectraMax M5, Molecular Devices, Sunnyvale, CA, USA). […]

[2] = molecular target: T1, recombinant human MAO-B; assay: Enzyme kinetics and mechanism of inhibition of MAO-B; conditions: Lineweaver-Burk / dialysis
Description: (§1) Results are presented as double reciprocal Lineweaver-Burk plots. The kinetic data, namely, KM, Vmax, and Ki values, were calculated by SigmaPlot 12.3 with enzyme-kinetics module using Michaelis-Menten equation. The results were also analyzed for the type of inhibition.
(§2) We further evaluated the kinetics and mechanism of inhibition of human MAO-A and MAO-B isoenzymes by desmethoxyyangonin 6 (Figures 3 and 4). To comprehend the type of inhibition, we examined 6 against both MAO-A and MAO-B at varying concentrations of kynuramine, a nonselective substrate. Desmethoxyyangonin 6 was tested at two concentrations: one above and the other below the IC50 value. For each experiment, three sets of assays were done at variable concentrations of the substrate: two concentrations of the inhibitor/compound and one control without inhibitors. The results are presented as double reciprocal Lineweaver-Burk plots and the kinetic data, namely, KM, Vmax, and Ki values, were computed by SigmaPlot 12.3 with enzyme-kinetics module using Michaelis-Menten equation (Table 2). […] However, MAO-B inhibition by 6 was competitive (Figure 4). The binding affinities of compound 6 with MAO-A and MAO-B were compared with reference MAO inhibitors.

[3] = molecular target: T2, recombinant human MAO-A (Homo sapiens, UniProt P21397); assay: Enzyme kinetics and mechanism of inhibition of MAO-A; conditions: Lineweaver-Burk / dialysis
T2 construct: purchased BD Biosciences (Bedford, MA, USA); host or cells: baculovirus (Autographa californica) infected insect cells (BTI-TN-5B1-4)
Description: as §1, §2

IC50 ([1]; kynuramine 50 μM, mean ± SD of triplicate, read-out: Monoamine oxidase-B IC50): 150 ± 9.5 nM
Index MAO-A/B ([1]; ratio of IC50 MAO-A / IC50 MAO-B): 1.566
Type of Inhibition, Monoamine oxidase-B [2]: Mixed/irreversible
Type of Inhibition, Monoamine oxidase-A [3]: Mixed/irreversible
Compound: NNCCc1ccccc1 [Phenelzine, phenelzine, reference compound]
